For orientation: inhibition means the drop in the measured response relative to a control, in per cent.

Chains of the proteins cited; added tags and fusions are not shown.
UniProt P08912, whole entry: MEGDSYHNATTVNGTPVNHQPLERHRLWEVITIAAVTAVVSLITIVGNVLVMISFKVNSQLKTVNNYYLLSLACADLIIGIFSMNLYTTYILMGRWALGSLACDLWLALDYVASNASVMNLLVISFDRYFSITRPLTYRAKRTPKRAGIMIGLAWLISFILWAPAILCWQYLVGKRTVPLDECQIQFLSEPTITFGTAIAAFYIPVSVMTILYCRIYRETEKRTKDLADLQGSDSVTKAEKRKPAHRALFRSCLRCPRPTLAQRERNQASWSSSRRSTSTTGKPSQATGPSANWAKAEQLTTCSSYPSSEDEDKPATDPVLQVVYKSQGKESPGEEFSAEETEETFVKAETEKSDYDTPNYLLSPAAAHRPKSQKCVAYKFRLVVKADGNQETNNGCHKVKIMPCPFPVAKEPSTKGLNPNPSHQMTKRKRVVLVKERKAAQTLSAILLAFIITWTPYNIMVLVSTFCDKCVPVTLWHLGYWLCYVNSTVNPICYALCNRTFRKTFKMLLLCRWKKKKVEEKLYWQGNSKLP

This is an account of results in PubChem BioAssay AID624040 (The Scripps Research Institute Molecular Screening Center, 2012).

This is a selection; strong and weak results do not stand in their true shares. Activity calls are given as the source filed them.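 How the source made its calls: active means inhibition above a per-plate cutoff, the mean of that plate's test compounds plus 3 SD (cut at about 27% in these data); inactive means the rest.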

The assay deals with Muscarinic acetylcholine receptor M5 (Homo sapiens) (UniProt P08912). The experiment in a line: CHRM5 blockers of acetylcholine calcium response – CHO cells, Fluo-8 calcium fluorescence, primary screen (AID 624040).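 Further: 0% = acetylcholine EC80 with DMSO and 100% = DMSO without agonist.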 The following applies: CHO-hM5 cells, ACh EC80, at 3 µM, active compounds read high.
As for `CCCCn1nnnc1C(c1ccccc1OC(F)(F)F)N1CCC(n2c(=O)[nH]c3ccccc32)CC1` (stereo unspecified), the inhibition was inactive: -3.26%.

Regarding `CC(C)c1ccc(NC2CCN(C(=O)OC(C)(C)C)CC2)cc1`, the inhibition is inactive: 2.18%.

In the case of `CN(C)c1cccc(C(=O)NCC2(N3CCCCC3)CCCCC2)c1`, the inhibition was inactive: 4.74%.

On to `COc1ccc(CN(CCCl)CCCl)cc1Cl`, for which the inhibition is inactive: -13.2%.

In the case of `O=C(NCC1(N2CCOCC2)CCCCC1)c1cc(F)c(F)cc1Cl`, the inhibition is inactive: 3.52%.

Consider `CCC(c1nnnn1C(C)(C)C)N1CCC(n2c(=O)[nH]c3ccccc32)CC1` (stereo unspecified), for which the inhibition is inactive: 1.32%.

For `COc1cc(OC)c(C(=O)NCC2(N(C)C)CCCCC2)cc1OC`, the inhibition is inactive: 6.04%.

As for `CCCCn1nnnc1C(c1ccnc2ccccc12)N1CCC(n2c(=O)[nH]c3ccccc32)CC1` (stereo unspecified), the inhibition is inactive: 12.1%.

On to `CN1CCC(Nc2cccc(F)c2)CC1`, for which the inhibition is inactive: -2.54%.

Turning to `O=C(NCC1(N2CCCCC2)CCCCC1)c1cncc(Br)c1`, the inhibition is inactive: 8.87%.

Take `COc1ccc(C(c2nnnn2C2CCCC2)N2CCC(n3c(=O)[nH]c4ccccc43)CC2)cc1` (stereo unspecified): the inhibition is inactive: -0.51%.

Consider `CCCOc1ccc(C(=O)NCC2(N(C)C)CCCCC2)cc1OC`, for which the inhibition was inactive: 2.74%.

`Cc1ccc(C(=O)NCC2(N(C)C)CCCCC2)o1`: the inhibition is inactive: -4.06%.

Regarding `O=C(NCC1(N2CCCCC2)CCCCC1)c1ccc(OC(F)F)cc1`, the inhibition is inactive: 12.3%.

Regarding `CC(C)(C)n1nnnc1C(c1ccccc1OC(F)(F)F)N1CCC(n2c(=O)[nH]c3ccccc32)CC1` (stereo unspecified), the inhibition is inactive: 12.4%.

In the case of `O=c1[nH]c2ccccc2n1C1CCN(C(c2ccccc2OC(F)(F)F)c2nnnn2C2CCCC2)CC1` (stereo unspecified), the inhibition was inactive: -5.72%.

For `N#CC1(Nc2ccccc2)CCN(CCc2ccccc2)CC1`, the inhibition is inactive: -2.9%.

For the molecule `CCN1CCC(Nc2ccc(Cl)cc2)CC1`, the inhibition is inactive: 9.13%.

As to `O=C(NCC1(N2CCCCC2)CCCCC1)c1cccc([N+](=O)[O-])c1`, the inhibition was inactive: 6.45%.

For `CSc1ccc(C(=O)NCC2(N3CCOCC3)CCCCC2)cc1`, the inhibition was inactive: -6.03%.

Take `O=C(NCC1(N2CCCCC2)CCCCC1)c1cccc(C(F)(F)F)c1`: the inhibition is inactive: 8.38%.

With `COc1cc(C(=O)NCC2(N3CCCCC3)CCCCC2)ccc1OC(F)F`, the inhibition was inactive: 7.07%.

With `O=C(NCC1(N2CCOCC2)CCCCC1)c1cc(=O)[nH]c2ccccc12`, the inhibition is inactive: -5.17%.

Take `CN1CCN(CCOC(=O)C(O)(c2ccccc2)c2ccccc2)CC1`: the inhibition was inactive: 20.2%.

On to `COc1ccc(NC2CCN(C(=O)OC(C)(C)C)CC2)cc1`, for which the inhibition is inactive: 4.96%.

As to `CC(C)c1ccc(C(=O)NCC2(N3CCOCC3)CCCCC2)cc1`, the inhibition was inactive: 3.47%.
